{"sequences": {"note": "Chains of the proteins cited; added tags and fusions are not shown.", "UniProt P23977, whole entry": "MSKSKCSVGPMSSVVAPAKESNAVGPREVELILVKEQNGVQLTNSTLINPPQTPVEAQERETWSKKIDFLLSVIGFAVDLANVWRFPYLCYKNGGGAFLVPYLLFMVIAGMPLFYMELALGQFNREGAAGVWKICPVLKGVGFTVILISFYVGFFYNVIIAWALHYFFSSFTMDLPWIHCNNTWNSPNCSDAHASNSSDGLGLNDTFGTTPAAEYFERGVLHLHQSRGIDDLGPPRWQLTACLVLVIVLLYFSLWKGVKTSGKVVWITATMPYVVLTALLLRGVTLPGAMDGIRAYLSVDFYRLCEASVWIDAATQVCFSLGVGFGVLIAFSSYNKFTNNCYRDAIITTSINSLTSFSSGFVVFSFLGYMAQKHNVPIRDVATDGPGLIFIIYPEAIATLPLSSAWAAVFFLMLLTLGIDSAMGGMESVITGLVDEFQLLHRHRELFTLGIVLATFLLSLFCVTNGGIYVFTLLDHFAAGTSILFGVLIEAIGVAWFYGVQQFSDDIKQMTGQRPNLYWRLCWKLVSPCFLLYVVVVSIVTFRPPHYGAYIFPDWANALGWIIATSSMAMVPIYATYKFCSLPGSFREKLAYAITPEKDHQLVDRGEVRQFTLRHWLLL"}, "source": "ChEMBL document CHEMBL1125413", "about": "(J Med Chem, 1992)", "molecular_target": "Sodium-dependent dopamine transporter (Rattus norvegicus, UniProt P23977)", "test": "Inhibition of [3H]WIN-35428 binding to the dopamine transporter"}
{"smiles": "COC(=O)[C@@H]1C2CC[C@H](C[C@@H]1c1ccc(OC)cc1)N2C", "values": [{"measurement": "IC50", "result": 8, "unit": "nM"}]}
